The results in this text go back to ChEMBL document CHEMBL2176986, “Selective and potent urea inhibitors of cryptosporidium parvum inosine 5'-monophosphate dehydrogenase” (J Med Chem, 2012).

The test system of this assay is Toxoplasma gondii. Kind of assay: Selectivity ratio of EC50 of wild type Toxoplasma gondii to EC50 of Toxoplasma gondii expressing Cryptosporidium parvum IMPDH. The essentials:
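Selectivity is the EC50 against wild-type RH T. gondii divided by the EC50 against the CpIMPDH-dependent strain. Both were measured by daily YFP fluorescence of parasites on hTERT human foreskin fibroblasts over 6-7 days, with inhibition taken in exponential growth.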

Regarding `CC(C)(NC(=O)Nc1ccc(Cl)c(C(N)=O)c1)c1cccc(-c2ccccc2)c1`, the “Ratio EC50” value is reported as 30.

Consider `CC(=O)c1cccc(C(C)NC(=O)Nc2ccc(Cl)cc2)c1` (stereo not drawn), for which the “Ratio EC50” value is 4.

Consider `CC(O)c1cccc(C(C)(C)NC(=O)Nc2ccc(Cl)cc2)c1` (stereo not drawn), for which the “Ratio EC50” value is recorded as 20.
